Measured values published in patent US7504407B2, “Compounds specific to adenosine A1 and A3 receptors and uses thereof” (OSI Pharmaceuticals, Inc., priority 2001, dated 2009).

Amino acid sequences for entries named in this document (tags omitted).
UniProt P0DMS8, whole entry: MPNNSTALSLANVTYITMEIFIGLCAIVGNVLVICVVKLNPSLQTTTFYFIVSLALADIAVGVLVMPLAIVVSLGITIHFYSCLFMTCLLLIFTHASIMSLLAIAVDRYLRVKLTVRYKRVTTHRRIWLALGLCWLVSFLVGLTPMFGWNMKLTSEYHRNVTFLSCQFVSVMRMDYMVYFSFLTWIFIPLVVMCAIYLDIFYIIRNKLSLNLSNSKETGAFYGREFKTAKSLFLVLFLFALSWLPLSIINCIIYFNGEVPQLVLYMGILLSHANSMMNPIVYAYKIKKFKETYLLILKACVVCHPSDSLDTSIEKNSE

Target: human A3 receptor (Homo sapiens, UniProt P0DMS8)
Assay: Displacement binding of [3H]CPX, yeast membranes expressing hA3R

IC50: 23.6 nM
SMILES: CC(Cc1ccccc1)Nc1ncnc2c1ncn2C1OC(CO)C(O)C1O (single isomer, unassigned; (-))
